Sequences of proteins named here, by UniProt entry; tags and fusion partners are left off. Residues count along the entry.
UniProt Q9LJL9, 2-599: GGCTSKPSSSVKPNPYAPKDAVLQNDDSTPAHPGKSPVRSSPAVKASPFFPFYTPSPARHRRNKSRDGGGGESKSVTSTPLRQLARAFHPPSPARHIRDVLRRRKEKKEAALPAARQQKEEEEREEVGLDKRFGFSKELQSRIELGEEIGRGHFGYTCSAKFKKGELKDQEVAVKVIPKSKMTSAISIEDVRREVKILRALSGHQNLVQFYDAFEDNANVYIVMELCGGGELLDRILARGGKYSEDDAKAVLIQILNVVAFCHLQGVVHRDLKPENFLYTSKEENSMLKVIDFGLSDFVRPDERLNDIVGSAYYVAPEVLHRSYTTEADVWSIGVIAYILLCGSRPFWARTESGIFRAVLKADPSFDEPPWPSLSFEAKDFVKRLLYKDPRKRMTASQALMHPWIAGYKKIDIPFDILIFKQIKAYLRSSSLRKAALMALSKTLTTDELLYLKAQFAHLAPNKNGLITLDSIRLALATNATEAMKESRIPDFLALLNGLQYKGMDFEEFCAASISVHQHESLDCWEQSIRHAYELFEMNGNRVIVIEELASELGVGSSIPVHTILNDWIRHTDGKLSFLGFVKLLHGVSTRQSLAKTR

In article PMC5645313, “Tyrosine phosphorylation of the GARU E3 ubiquitin ligase promotes gibberellin signalling by preventing GID1 degradation” (Nature Communications, 2017):

Target: TAGK2 (CRK2) (Arabidopsis thaliana, UniProt Q9LJL9)
Assay: biochemical

`O=c1c(-c2ccc(O)cc2)coc2cc(O)cc(O)c12` [GNS, genistein] gave an IC50 of 2.56 nM.
